Results: US8207176B2 (Glaxo Group Limited, priority 2005, dated 2012)

What follows are compounds tested on influx of neutrophils to the lung in LPS-challenged rats (assay: Rat LPS neutrophilia model). Settings: intratracheal, LPS aerosol 100 ug/ml 15 min, lavage 4 hours later, in at least one of the range of conditions tested, significant p<0.05, nonsignificant p>0.05.
Format: in vivo
Method: The effect of compounds on the influx of neutrophils to the lung in LPS-challenged rats is evaluated as follows. The test compound is suspended in one of the following solutions: 0.5% tween 80/PBS, 0.5% tween 80/saline, 10% EtOH/saline (with pH adjusted to 2.0, or 8.0 with HCl, or unadjusted), Saline @ pH 2.0, 6.5 or 8.0, 0.5% Tragacanth, 1% DMSO/20% Encapsin/Saline, or acidified 5% Tragacanth. The suspension process may be aided by the use of a glass homogenizer. For intratracheal administration, the animals are anesthetized with inhaled isoflurane and placed in a supine position, the trachea is intubated with a steel gavage needle (1.5 inch, 22 gauge, small ball) or a Penn-Century Microsprayer Aerosolizer (model IA-IB) and 200 ul of dosing solution is delivered. The animals are visually monitored during the recovery process, which typically occurs within two minutes. It is noted that the test compounds may be alternatively administered via the microsprayer in a dry powder blend with a suitable excipient, such as lactose.
Rats treated with compound or vehicle (15 min-24 hours pretreatment) are exposed to an LPS aerosol (100 ug/ml) for 15 min. Four hours later the rats are euthanized with pentobarbital (100 mg/kg, i.p.) and the airways are lavaged with 5 washes of 5 ml of phosphate buffered saline. The harvested cells are stained (Diffquick) and counted to determine total and differential cell data. […] Inhibition of neutrophil levels relative to no compound controls is calculated based on the differential counts.
The data is obtained as % inhibition using a particular concentration and pretreat time.

SMILES	inhibition of neutrophilia (neutrophil levels in lung lavage relative to no compound controls)
CCN(CC)CCCNc1nc(-c2cc(C(=O)NCC(C)C)ccc2C)c2ccc(=O)n(-c3c(F)cccc3F)c2n1 [Example 124, 3-[2-{[3-(diethylamino)propyl]amino}-8-(2,6-difluorophenyl)-7-oxo-7,8-dihydropyrido[2,3-d]pyrimidin-4-yl]-4-methyl-N-(2-methylpropyl)benzamide]	statistically significant inhibition
CCN(CC)CCCNc1nc(-c2cc(C(=O)NCC(F)(F)F)ccc2C)c2ccc(=O)n(-c3c(F)cccc3F)c2n1 [Example 128, 3-[2-{[3-(diethylamino)propyl]amino}-8-(2,6-difluorophenyl)-7-oxo-7,8-dihydropyrido[2,3-d]-pyrimidin-4-yl]-4-methyl-N-(2,2,2-trifluoroethyl)benzamide]	inactive
CCNC(=O)c1ccc(C)c(-c2nc(NCCCN(CC)CC)nc3c2ccc(=O)n3-c2c(F)cccc2F)c1 [Example 129, 3-[2-{[3-(diethylamino)propyl]amino}-8-(2,6-difluorophenyl)-7-oxo-7,8-dihydropyrido[2,3-d]pyrimidin-4-yl]-N-ethyl-4-methylbenzamide]	statistically nonsignificant inhibition
CCCNC(=O)c1ccc(C)c(-c2nc(NCCCN(CC)CC)nc3c2ccc(=O)n3-c2c(F)cccc2F)c1 [Example 122, 3-[2-{[3-(diethylamino)propyl]amino}-8-(2,6-difluorophenyl)-7-oxo-7,8-dihydropyrido[2,3-d]pyrimidin-4-yl]-4-methyl-N-propylbenzamide]	statistically nonsignificant inhibition
CCN(CC)CCCNc1nc(-c2cc(C(=O)NC3CCCC3)ccc2C)c2ccc(=O)n(-c3c(F)cccc3F)c2n1 [Example 125, N-cyclopentyl-3-[2-{[3-(diethylamino)propyl]amino}-8-(2,6-difluorophenyl)-7-oxo-7,8-dihydropyrido[2,3-d]pyrimidin-4-yl]-4-methylbenzamide]	statistically nonsignificant inhibition
